This is a selection; strong and weak results do not stand in their true shares. Active and inactive are the calls of the source. Rule as the data show it: active = percent response above about 24% (passing the limit was not always enough); inactive = the rest.
What follows are molecules tested on MEKK2 (MAP3K2) mutant PB1 domain binding to MEK5, human (assay: MEK5 binding signal on mutant MEKK2 PB1, primary screen, biochemical, multiplex bead flow cytometry, Alexa488-MEK5 (AID 1530)). Conditions: at 10 µM, active compounds read high.
For `O=[N+]([O-])c1cccc(NC2=NCC(CBr)S2)c1` (stereo not given), the percent response was inactive: -2%. `O=C(O)CNc1ccc([As](=O)(O)O)cc1` was tested, and the percent response was inactive: 1%. With `CC(C)(C)C(=O)NC(Sc1ccncn1)C(Cl)(Cl)Cl` (stereo not given) the percent response was inactive: -2%. In the case of `O=[N+]([O-])c1ncn(CCn2ncnc2[N+](=O)[O-])n1`, the percent response is reported as inactive: 2%. In the case of `O=C(Nc1cc([As](=O)(O)O)ccc1O)c1ccccc1`, the percent response is reported as inactive: -6%. For `CC(C)=N/N=C(\N)N[N+](=O)[O-]`, the percent response was inactive: -6%. `CN(C)C(=O)OCCc1n(C)cc[n+]1C` was tested, and the percent response was inactive: -4%. `CC1CCN(C(=O)Oc2c(Cl)cc(Cl)c3cccnc23)CC1` was tested, and the percent response was inactive: -5%. `Nc1ccc([As](=O)(O)c2ccc(N)cc2)cc1` was tested, and the percent response was inactive: -4%. `C[N+]1=C2C=CC=CC=C2SC12C([N+](=O)[O-])=CC([N+](=O)[O-])=C[C-]2[N+](=O)[O-]` (stereo not given) was tested, and the percent response was inactive: -33%. `CCN(/C(=N/P(=O)(N1CCOCC1)N1CCOCC1)N1CCOCC1)c1ccc(OC)cc1` was tested, and the percent response was inactive: 1%. In the case of `CC(=O)N1C2C3N(C(C)=O)C1C1N(C(C)=O)C(C(N1C(C)=O)N3C(C)=O)N2C(C)=O`, the percent response is reported as inactive: 8%. In the case of `O=[N+]([O-])c1cccc2n[nH]nc12`, the percent response is reported as inactive: 1%. With `Cc1ccc(NP(=O)(Oc2ccccc2)Oc2ccccc2)nc1` the percent response was inactive: -6%. With `O=[N+]([O-])c1cc([N+](=O)[O-])c(CCNc2ccccc2)c([N+](=O)[O-])c1` the percent response was inactive: 4%. With `CCc1nc2c(n1)c1c(non1O)c1c2no[n+]1[O-]` the percent response was inactive: -1%. `COc1ccc(C2=NCC(CBr)S2)cc1` (stereo not given) was tested, and the percent response was inactive: -1%. In the case of `Nc1cc(N)c2nonc2c1[N+](=O)[O-]`, the percent response is reported as inactive: 15%. With `CC(C)CC(=O)NC(Sc1ccc(Cl)cc1)C(Cl)(Cl)Cl` (stereo not given) the percent response was inactive: -6%. With `Oc1ccccc1CNc1ccccn1` the percent response was inactive: -5%. With `O=C(NC(Sc1ccncn1)C(Cl)(Cl)Cl)c1ccccc1` (stereo not given) the percent response was inactive: 0%. In the case of `Cc1c2non([O-])c-2c(C)[n+](=O)[n+]1[O-]`, the percent response is reported as inactive: -1%. In the case of `COc1ccccc1OP(=O)(Nc1ccc(C)cn1)Oc1ccccc1OC`, the percent response is reported as inactive: -7%. `Cc1ccc(OP(=O)(Nc2nccs2)Oc2ccc(C)cc2)cc1` was tested, and the percent response was inactive: -10%. For `CN1CCCC(OC(=O)C(c2ccccc2)c2ccccc2)C1` (stereo not given), the percent response was inactive: 5%. For `Clc1ccc(Cl)c(NC2=NCC(CBr)S2)c1` (stereo not given), the percent response was inactive: 4%. With `NC(=O)c1cc([N+](=O)[O-])cc([N+](=O)[O-])c1N` the percent response was inactive: -13%. With `CCN(N=Nc1nonc1N)c1nonc1N` the percent response was inactive: 0%. For `Nc1cccc2ccc([As](=O)(O)O)cc12`, the percent response was inactive: -3%. In the case of `O=[N+]([O-])c1cc([N+](=O)[O-])c(CCN2CCOCC2)c([N+](=O)[O-])c1`, the percent response is reported as inactive: 1%.

Source: PubChem BioAssay AID1530 (NMMLSC, 2009)
